Experimental data: article PMC4707132 (Journal of medicinal chemistry, 2015)

Sequences of proteins named here, by UniProt entry; tags and fusion partners are left off.
UniProt Q07820, whole entry: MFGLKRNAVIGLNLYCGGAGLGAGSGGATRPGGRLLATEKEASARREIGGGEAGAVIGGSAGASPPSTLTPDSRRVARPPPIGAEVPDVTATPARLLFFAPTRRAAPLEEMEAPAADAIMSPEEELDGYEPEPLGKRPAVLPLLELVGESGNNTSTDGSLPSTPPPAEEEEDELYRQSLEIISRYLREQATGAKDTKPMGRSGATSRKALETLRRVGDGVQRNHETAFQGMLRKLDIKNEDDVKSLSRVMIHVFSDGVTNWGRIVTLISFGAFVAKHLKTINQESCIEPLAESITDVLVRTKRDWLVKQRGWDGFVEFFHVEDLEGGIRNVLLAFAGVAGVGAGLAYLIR

Target: Mcl-1 (Homo sapiens, UniProt Q07820)
Assay: fluorescence polarization competition assay
Assay type: binding
Conditions: competition with Noxa peptide

R-(-)-gossypol [AT-101, reference compound]
polarization on addition of compound: dose-dependent decrease in polarization
